# Laboratory results published in paper PMC7611526.
# Assays:
# OCT4-WT (Homo sapiens) = assay: EMSA
# [1] = tested on: OCT4-del-79 (Homo sapiens); assay: EMSA
Substance,Kd (OCT4-WT (Homo sapiens)),Kd [1]
LIN28B-nucleosome,2.34 nM,–
LIN28B-DNA,–,2.34 nM
